The target in one series is T1, GIP Receptor (Homo sapiens, UniProt P48546).
T1 sequence (P48546 22-466): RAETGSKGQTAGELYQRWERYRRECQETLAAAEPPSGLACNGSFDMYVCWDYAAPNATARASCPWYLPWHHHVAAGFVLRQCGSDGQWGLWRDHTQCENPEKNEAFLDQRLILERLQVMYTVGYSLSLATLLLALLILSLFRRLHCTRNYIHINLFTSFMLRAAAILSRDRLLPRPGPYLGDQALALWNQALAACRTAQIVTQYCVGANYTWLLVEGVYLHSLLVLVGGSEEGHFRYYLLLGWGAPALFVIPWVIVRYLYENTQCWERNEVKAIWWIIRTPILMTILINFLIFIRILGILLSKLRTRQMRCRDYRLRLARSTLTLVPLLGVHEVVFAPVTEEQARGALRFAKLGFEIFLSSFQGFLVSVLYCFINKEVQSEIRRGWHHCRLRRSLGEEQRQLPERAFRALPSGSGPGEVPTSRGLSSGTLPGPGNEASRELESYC
The class given is cell-based.

Series [1] in a line: Stability in human plasma. In kind it is in vitro ADME. The conditions noted are these: 37°C, 0-5 hrs.
The nature of series [2]: Protease resistance with RINm5F cell membrane extracts. The conditions noted are these: 30µM peptide, 37°C, monitored for 6 hr by LC-MS. The class given is in vitro ADME.
The next series concerns the target human GIP receptor (Homo sapiens, UniProt P48546). The conditions noted are these: read-out: IC50 in HEK-GIPR.
[3] abbreviates: receptor activation, read-out: Cyclase (GIPR Cyclase).

As usually defined, the IC50 is the concentration that gives 50% inhibition.

Like-named read-outs stand apart in the source and are kept apart here.

“YSDGTFISDYSIAMDKlHQQDFVNWLLAQKPKKIRYS-NH2 [Compound 0601GIP4386]”: the EC50 at GIP Receptor (setting [3]) came to 56 nM.
For the substance “YaEGTFISDYSIAMDKIHQQDFVNWLLAQKPSSGAPPPS-NH2 [Compound 0601GIP3794]”, in series [1], the “human plasma stability score” value is listed as “stable (greater than about 90% remaining at 5 hours of treatment to human plasma)”. In addition, the EC50 on GIP Receptor (the 20th table, read-out: GIPR Cyclase) is 38 nM. In series [2], the resistance to proteases result is “more stable than its parent molecule GIP(1-30) without the shield or the full length GIP(1-42)”.
With “[dAla2, Leu14, beta-Ala31, beta-Ala32] GIP-(1-32)-Exendin-4 (31-39) [Compound 0601GIP4179]”, the IC50 at human GIP receptor came to 0.7 nM. Moreover, at GIP Receptor (setting [3]), the EC50 amounted to 55.9 nM.
In the case of “octylglycine-GIP(1-30)-Exendin-4-(31-39) [Compound 0601GIP4178]”, the “human plasma stability score” value in series [1] is listed as “unstable (less than about 75% remaining at 2 hours)”. The half-inhibitory concentration (IC50) at human GIP receptor was 0.17 nM. For the same substance, the EC50 turned out to be 36.2 nM at GIP Receptor (setting [3]) and 96 nM on GIP Receptor (the 21st table, read-out: Cyclase).
As to “[dAla2]GIP-(1-30)-[Octylglycine 34] Exendin-4 (31-39) [Compound 0601GIP4252]”, the EC50 on GIP Receptor (setting [3]) is 154 nM.

Source of the values: patent EP2057188B1 (priority 2006, dated 2008).
